Patent publication US20120252119A1, “METHODS FOR THE COLLECTION AND MATURATION OF OOCYTES” (priority 2009, published 2012)

How the values were obtained:
bovine oocytes = assay: Oocyte nuclear morphology assessment (GV configuration, GVBD, meiotic progression); type: cell-based; conditions: FSH in IVM media with cilostamide, FIG. 8B
Procedure: At the end of the incubation, COCs were denuded and oocytes were fixed for 30 min in 4% paraformaldehyde in PBS (pH 7.4). Oocytes were then permeabilized in 0.1% Triton X-100 in 0.1% sodium citrate for 1 hour, then transferred to 0.001% 4′,6-diamidino-2-phenylindole (DAPI), a fluorescence stain for nuclear material, for 15 min. Oocytes were rinsed 3 times in PBS+0.03% BSA, mounted on slides and evaluated for nuclear status at 400× using an Olympus fluorescence microscope. Stages of germinal vesicle (GV) and subsequent meiotic development were assessed based on known techniques (Chohan and Hunter, 2003, Anim. Reprod. Sci. 76: 43-51). […]
Bovine COCs were incubated for 2 hours in the pre-IVM phase media as hereinbefore described, followed by 7 hours culture in the presence of FSH, and in the presence or absence of cilostamide (20 μM). Oocytes were then fixed and assessed for meiotic progression and classified as GV (germinal vesical intact—still under meiotic arrest) or GVBD (germinal vesical breakdown—resumption of meiosis). […] The presence of letters (a or b) above each column indicate a statistical difference between the means as determined by ANOVA analysis followed by Bonferronni's post hoc test, P<0.05. […]

[1] = tested on: oocyte-cumulus cell gap junctional communication; assay: Oocyte-cumulus cell gap junctional communication assay (calcein transfer); type: cell-based, bovine; conditions: after 3 hours of IVM culture post pre-IVM phase, FIG. 7
Procedure: Cumulus-oocyte gap junctional communication (GJC) was measured by quantitative fluorescence microscopy of calcein transfer to the oocyte as described previously (Thomas et al., 2004, In “Biol. Reprod.”, pp 1142-1149). GJC was measured either after 2 hours of pre-IVM phase or followed by an additional 3 hours of IVM with or without cilostamide (20 μM). A mean number of 10-12 oocytes were used in each treatment group in each of four replicate experiments. After culture, COCs were transferred to a solution of 1 μM calcein-AM (3′,6′-di(O-acetyl)-2′,7′-bis[N,N-bis(carboxymethyl)amino methyl]-fluorescein, tetraacetoxy methyl ester; C-3100; Molecular Probes; Eugene, Oreg., USA) freshly prepared in a BSA-free Bovine VitroCollect (Cook Australia) supplemented with polyvinyl alcohol (PVA; 0.3 mg/ml). […] Prior to fluorescence microphotometry, COCs were completely denuded of their surrounding cumulus cells using vigorous pipetting so that only dye confined within the denuded oocyte after transport via gap junctions was measured. Within 30 minutes of denuding, the intra-oocyte fluorescence emission of calcein in oocytes was measured using a fluorophotometric-inverted microscope (Leica, Wetzlar, Germany). […]

[2] = tested on: cAMP concentrations in mouse cumulus-oocyte complexes (COCs); assay: In vivo cAMP concentrations in mouse COCs after eCG and hCG; conditions: following the hCG treatment, FIG. 14A
Procedure: The data represents the mean cAMP level per COC±SEM of 4 replicates. Each measurement was conducted on 12 COCs.

## FSH: follicle stimulating hormone (Puregon, Organon)
Bovine oocytes
  effect on cilostamide delay of progression to M II: overridden
[1]
  levels of gap junctional communication: had no effect in maintaining the level of gap junctional communication

## hCG: human chorionic gonadotropin, induces oocyte maturation in vivo
[2]
  cAMP concentration in in vivo matured oocytes: significant increase in cAMP concentration
